Data: PMC3663649, “Nucleosomal DNA binding drives the recognition of H3K36-methylated nucleosomes by the PSIP1-PWWP domain” (Epigenetics & Chromatin, 2013)

Tested on: GST-PWWP
Test: biotinylated histone H3 peptide pull-down with GST-PWWP lysates
Type: binding, human
Conditions: biotinylated H3 peptides, GST-PWWP (or mutant) lysates, anti-GST immunoblot
Experimental: Mono-nucleosomes were extracted from HeLa or yeast cells by MNase treatment of lysed cells as previously described. Histone H3 mutants were selected from a mutant library. GA beads (Sigma-Aldrich, St. Louis, MO) were covered with GST-fusion proteins, mixed with mono-nucleosomes and washed. Eluted proteins were analyzed by immunoblotting. HeLa mono-nucleosomes were incubated with premixed GFP-fusion protein and GFP binder beads (ChromoTek, Planegg-Martinsried, Germany) and analyzed in a similar way. Peptide pull-downs were performed as described previously.

For `CC(C)[C@H](NC(=O)CNC(=O)CNC(=O)[C@@H](NC(=O)[C@H](C)NC(=O)[C@@H]1CCCN1C(=O)[C@H](C)NC(=O)[C@@H](N)CO)[C@@H](C)O)C(=O)N[C@@H](CSCC[N+](C)(C)C)C(=O)N[C@@H](CCCCN)C(=O)N1CCC[C@H]1C(=O)N[C@@H](Cc1c[nH]cn1)C(=O)N[C@@H](CCCNC(=N)N)C(=O)N[C@@H](Cc1ccc(O)cc1)C(=O)N[C@@H](CCCNC(=N)N)C(=O)N1CCC[C@H]1C(=O)NCC(=O)O` [H3KC36me3 peptide], the “peptide binding in pull-down” value was “to a similar degree” and the “peptide binding in pull-down” value (listed as H3KC36me3) was “binds preferentially”.
